Source: PMC6664820, “Novel natural and synthetic inhibitors of solute carriers SGLT1 and SGLT2” (Pharmacology Research & Perspectives, 2019)

System: CHO‐hSGLT1/2 cells
Assay: Cytotoxicity assay (ToxiLight, adenylate kinase leakage into CHO‐SGLT1/2 inhibition assay media);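 also: bioluminescent read-out of adenylate kinase released from lysed cells into the medium, given relative to DMSO vehicle control defined as 0%, higher meaning more cytolysis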
Parameters: dose or concentration left out as unconfirmed

## O=C(CCc1ccc(O)cc1)c1c(O)cc(O)cc1O[C@@H]1O[C@H](CO)[C@@H](O)[C@H](O)[C@H]1O [Phloridzin, phloridzin, reference compound]
  CY[…] (% of vehicle control) Mean: 2.7 % of vehicle control
